Test results taken from the NIST ThermoML archive (doi:10.1021/acs.jced.8b00954).

Key:
[1] = Crystal; DTA
[2] = Molar enthalpy of transition or fusion; settings: Crystal; DSC

- Normal melting temperature [1]: 109.30 ± 0.7 °C
- Molar enthalpy of transition or fusion [2]: 6.41 ± 0.143 kcal/mol
Structure (SMILES): CC(C)(C)NSc1nc2ccccc2s1 [N-tert-butylbenzothiazole-2-sulphenamide]

Numbers after ± are expanded uncertainties.
